# Measured values published in PubChem BioAssay AID1466 (National Center for Advancing Translational Sciences (NCATS), 2008).
# Screen size: about 200,000 compounds; about 10 (0.005%) were called active. All entries are inconclusive by the source's own rule. Clear calls are listed elsewhere. Calls come from the whole dose curve; as a rule, active = well fitted inhibition curve with a large enough effect; inconclusive = small, poorly fitted or top-dose-only effect, or effect the other way, or another doubt; inactive = no such curve, though single readings can be large or run the other way.
# Molecular target: Lysosomal alpha-glucosidase (Homo sapiens) (UniProt P10253)
# Experiment: qHTS Assay for Inhibitors of Human alpha-Glucosidase as a Potential Chaperone Treatment of Pompe Disease
# Settings: purified human GAA, 4-MU-alpha-glucoside fluorescence
# Potency is the fitted concentration of half-maximal effect.
row,SMILES,Potency
1,COc1ccc(C2=NCC(CBr)S2)cc1 (stereo not given),inconclusive: 0.316 µM
2,Cc1ccc(OP(=O)(Nc2ccccn2)Oc2ccc(C)cc2)cc1,inconclusive: 3.55 µM
3,CCOP1(=S)c2c(C)nn(CCC#N)c2N=C(c2ccc(F)cc2)N1C (stereo not given),inconclusive: 56.2 µM
4,O=[As](O)(c1ccccc1Br)c1ccccc1Br,inconclusive: 11.2 µM
5,CC1CCC(C(C)C)C(OP(=O)(Nc2ccccn2)c2ccccc2)C1 (stereo not given),inconclusive: 50.1 µM
